The values that follow are results of earlier work, collected in patent publication US9150585B2, “Analogs of camptothecin” (FL Therapeutics, LLC, priority 2012, dated 2015).

The conditions of the data set: Prijovich et al. 2003, cited from earlier work.

Turning to 9-Aminocamptothecin glucuronide, the blood half-life entry (active lactone ring form in blood) was “about 50 minutes”. The “lactone ring form at equilibrium in blood” value (blood) is reported as “about 20%”.
